## Measured affinities in a library of Ab-14 light chain variants

Values reported by Li et al. 2023, doi:10.1038/s41467-023-39022-2 (FLAb copy).

Target: peptide PDVDLGDISGINAS, taken from heptad repeat 2 (HR2) of SARS-CoV-2 spike.

Parent: Ab-14, a human scFv built as VH, three GGGGS repeats, VL. Only the CDRs of the light chain vary.
VH: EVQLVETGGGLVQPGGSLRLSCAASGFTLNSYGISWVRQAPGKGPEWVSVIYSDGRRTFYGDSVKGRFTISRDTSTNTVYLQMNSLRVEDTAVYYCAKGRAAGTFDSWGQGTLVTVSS
VL: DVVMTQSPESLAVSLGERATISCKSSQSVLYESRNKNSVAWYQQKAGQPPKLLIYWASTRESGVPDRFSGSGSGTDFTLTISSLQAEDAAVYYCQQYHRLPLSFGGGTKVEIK

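This is the validation round: designs drawn from the data on random variants, tested in the same kind of assay. Their group label is 14L_En_Gen (En: ensemble of fine-tuned language models; Gen: genetic algorithm). AlphaSeq pools MATa yeast showing the antibodies with MATalpha yeast showing the peptide. Pairs that bind mate more often; barcode pairs of the diploids are counted by sequencing. A regression on co-assayed BCL2-family reference pairs converts the normalised counts of each replicate to an apparent Kd. Mating was done six times.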

The parent's light chain CDRs are KSSQSVLYESRNKNSVA, WASTRES, QQYHRLPLS; each variant's own CDRs replace them letter for letter.
Affinities are written as log10 Kd with Kd in nM; a lower number is a better binder.
"ND" means that the variant was in the library but no mating with the target was seen in that replicate; the authors take this as a sign of poor binding, and no number exists.

CDR-L1,CDR-L2,CDR-L3,"replicates, log10 nM",empty controls
MISQLYNMGSFAINSVA,QASTRNE,QQYDRLPLI,2.01 1.30 1.40 1.74 1.96 2.00,1 of 18 (1.93)
QIYQAMHTLSQMKDNVA,DVNERGN,QQYYRLPLS,0.94 1.32 0.83 1.05 0.33 0.83,0 of 18
HMSALTLQGMRMRNSVA,QMTTREN,QQYDHLPLS,1.12 1.28 0.81 0.95 1.29 1.32,0 of 18
KISQMVKVGATHSNSIA,EEVTRAK,QQYHRLPLA,1.64 1.52 1.42 1.02 1.85 1.59,0 of 18
MISQLMNMGSFAINSVA,QAQTRNE,QQYDRLPLT,ND ND ND ND ND ND,0 of 18
KIGMTLNQLLHQKNNVA,DLVEREN,QQYFRLPLS,0.35 -0.09 0.14 -0.20 -0.05 -0.20,0 of 18
MVSQLMIWGLHAKNSIA,EAQMRLN,QQYDRLPLF,ND 2.52 1.60 2.85 2.01 ND,1 of 18 (2.73)
MMSQVTGLGQRHRNNVA,QTSTREP,QQYDRLPLV,1.25 1.39 1.46 0.83 0.87 1.05,0 of 18
MISQVLNTLTKTGNNVA,DLAERED,QQYFRLPLS,1.29 0.81 0.98 0.85 1.12 1.51,2 of 18 (2.23)
TISQLMNMGQFAINSVA,QAEIRNA,QQYDRLPLM,ND ND ND ND ND ND,0 of 18
QIYQAMHTLSQHKDNVA,DVTERGN,QQYFRLPLS,0.40 -0.37 -0.10 -0.30 -0.02 0.02,0 of 18
TISQITSLFTQNINNVA,EVSTRLN,QQYDRLPLS,1.11 1.14 0.80 0.72 0.59 0.70,2 of 18 (3.20)
MVSMNIGGEYRNRDNVA,HASNREN,QCYDRLPLS,0.67 0.63 0.83 0.65 0.74 0.72,0 of 18
MISQLYNMGSFAINSVA,QANLRNE,QQYDRLPLA,1.04 1.45 1.83 1.75 2.15 1.69,0 of 18
TISQVMNTLTRNTNNVA,DLQEREY,QQYFRLPLS,0.13 0.21 0.11 -0.20 -0.05 0.35,3 of 18 (2.61)
MISQLTNMGTFAINSVA,QASLRNA,QQYDRLPLT,2.11 1.13 1.46 1.21 1.06 1.30,0 of 18
MMSQVTGQGQRHRNNVA,QTSTREP,QQYDRLPLM,1.67 0.90 0.86 1.12 1.18 0.78,1 of 18 (3.03)
IVSQLMLWGMHAKNSIA,EAEQRIN,QQYERLPLF,0.21 0.46 0.19 0.17 0.24 0.37,0 of 18
MISQVLNTLTKQGNNVA,DLQNRED,QQYFRLPLS,2.20 1.42 1.52 2.16 2.34 1.69,0 of 18
KIGMTLNMMSHKKNNVA,DLVTREN,QQYHRLPLS,0.95 0.06 -0.08 0.79 0.28 0.66,1 of 18 (1.01)
KISQMVRVGSTHSSSIA,EEQTRAK,QQYHRLPLA,ND ND ND ND ND ND,0 of 18
SISMLLNFESKMGNNVA,QMETRVN,QQYDRLPLT,0.20 0.96 0.55 0.79 0.68 0.96,0 of 18
KLASVTGTEKVRGNNVA,EMETRER,QQYNRLPLS,0.46 0.50 0.66 -0.08 0.29 1.35,0 of 18
HITYGMNVAGRHSSSIA,QAETREK,QQYDRLPLI,0.63 0.71 0.26 1.13 0.37 0.54,0 of 18
KIGMTLNQLLHQKNNVA,DLVERET,QQYHRLPLS,0.36 0.13 0.01 -0.10 -0.31 0.23,0 of 18
TLYGLTNSMSKNKNNVA,EMSTREA,QQYDRLPLM,1.45 1.02 0.33 0.51 0.72 0.74,1 of 18 (1.91)
KIGATLNMMSHKKNNVA,DLVTREQ,QQYHRLPLS,1.86 0.50 0.48 0.76 0.61 0.58,0 of 18
HITMGMYVMGRHNASIA,QAEERAK,QQYDRLPLI,-0.05 0.36 0.16 -0.11 0.05 0.40,0 of 18
KLTMITGLEKVSKNNVA,EMETREK,QQYNRLPLS,0.27 0.50 0.41 -0.10 0.22 0.43,0 of 18
KITATMRFEQKASNNIA,EVTTRSK,QQYYRLPLA,0.30 1.49 1.45 1.52 1.21 0.75,0 of 18
KISQMVRVGSTKGNSIA,EEETRAD,QQYHRLPLS,0.90 0.80 0.62 0.46 0.23 0.79,0 of 18
KLASVTGTEKVHGNNVA,EMETREK,QQYNRLPLS,0.46 0.08 0.11 0.21 -0.01 0.18,2 of 18 (3.26)
HLGMATMLQETVRNSVA,NNSTRES,QQYDRLPLS,ND ND 1.49 1.97 ND 2.38,0 of 18
KISQMVRVGSTHGNSIA,EEQTRAK,QQYHRLPLS,0.69 0.32 0.49 0.81 0.86 0.71,0 of 18
KIGATLNQLMHKKNNVA,DLVMREN,QQYFRLPLS,0.85 0.89 0.77 0.07 0.99 0.66,2 of 18 (1.91)
TLYGLSVSMSKNKNSVA,EMTTREK,QQYDRLPLE,1.41 1.61 1.52 1.56 1.50 1.55,3 of 18 (3.05)
MLSQMWAIGSKVKNSVA,QASMRFN,QQYDRLPLI,ND ND ND ND ND ND,0 of 18
HMSALTLMGSRNRNSVA,QMTTREN,QQYDRLPLI,1.14 0.73 0.60 0.86 0.84 1.10,0 of 18
MMSQVTGMGQRHRNNVA,QTNEREP,QQYDRLPLI,1.52 1.04 1.64 1.32 1.45 1.51,1 of 18 (3.00)
TLYGLTNSMSKNSNNVA,EMSTREA,QQYDRLPLV,0.95 0.35 0.23 0.01 0.16 0.50,1 of 18 (2.93)
MISQLMNMGQFAINSVA,QASLRND,QQYDRLPLA,0.57 0.08 0.09 -0.74 -0.30 -0.11,0 of 18
KVSEFMKGLMMRTDSIA,DNTTRGQ,QQYDRLPLS,1.62 ND 2.68 1.97 1.77 2.80,0 of 18
KLSGLMSSSKFAKDNVA,ENNTRED,QQYNRLPLS,1.76 1.64 1.63 1.26 1.58 1.59,2 of 18 (3.21)
TISQVMNTLTRNTNNVA,DLSNRED,QQYFRLPLS,0.39 -0.07 0.40 -0.08 0.07 0.30,0 of 18
KISQMAKVGATHSNSIA,EEVTRAK,QQYHRLPLA,0.60 0.76 1.11 0.66 0.71 0.54,0 of 18
TISQIYNMGQFAINSVA,QASERCN,QQYDRLPLM,0.79 0.61 0.42 0.53 0.25 0.57,1 of 18 (3.71)
MVTQMAMTGMKNKRSVA,NAETREN,QQYHRLPLI,0.51 0.76 1.33 0.66 1.90 1.15,1 of 18 (2.81)
MISQIYNMGSFAINSVA,QASTRNA,QQYDRLPLM,1.22 1.18 1.70 1.24 1.04 1.61,0 of 18
KFSQMVNSMSVSHSAVA,EMSTRES,QQYNRLPLS,0.34 0.35 -0.06 0.28 0.23 0.35,0 of 18
NISHFMDVTAKHNNNVA,EMTMRES,QQYHHLPLS,1.46 1.25 1.25 1.12 1.52 1.49,1 of 18 (2.28)

The closing 8 entries, repeated:

CDR-L1,CDR-L2,CDR-L3,"replicates, log10 nM",empty controls
KLSGLMSSSKFAKDNVA,ENNTRED,QQYNRLPLS,1.76 1.64 1.63 1.26 1.58 1.59,2 of 18 (3.21)
TISQVMNTLTRNTNNVA,DLSNRED,QQYFRLPLS,0.39 -0.07 0.40 -0.08 0.07 0.30,0 of 18
KISQMAKVGATHSNSIA,EEVTRAK,QQYHRLPLA,0.60 0.76 1.11 0.66 0.71 0.54,0 of 18
TISQIYNMGQFAINSVA,QASERCN,QQYDRLPLM,0.79 0.61 0.42 0.53 0.25 0.57,1 of 18 (3.71)
MVTQMAMTGMKNKRSVA,NAETREN,QQYHRLPLI,0.51 0.76 1.33 0.66 1.90 1.15,1 of 18 (2.81)
MISQIYNMGSFAINSVA,QASTRNA,QQYDRLPLM,1.22 1.18 1.70 1.24 1.04 1.61,0 of 18
KFSQMVNSMSVSHSAVA,EMSTRES,QQYNRLPLS,0.34 0.35 -0.06 0.28 0.23 0.35,0 of 18
NISHFMDVTAKHNNNVA,EMTMRES,QQYHHLPLS,1.46 1.25 1.25 1.12 1.52 1.49,1 of 18 (2.28)

A sequence measured in both rounds can read differently, since the two assays cover different ranges.
Background: pairings of all light chain designs with three empty control strains gave a value in 4% of cases (median 2.64, 5th percentile 1.59). Values in that range, when seen in few replicates, are hard to tell from nonspecific mating. Also given: how often the same scFv was detected with the empty control strains, with their mean in brackets.
The authors' rule: three or more of the six replicates give a measured affinity, fewer mean a poor binder.